Test results published in patent publication US8722896B2, “Prokineticin receptor antagonists and uses thereof” (The Regents of the University of California, priority 2008, dated 2014).
“And” between values parts separate entries of the source, which are not always exact repeats. Equal values may be shown once.

Chains of the proteins cited; added tags and fusions are not shown. Lines headed by an entry give the natural chain unless they say otherwise; changes in a name come on top.
UniProt Q8TCW9: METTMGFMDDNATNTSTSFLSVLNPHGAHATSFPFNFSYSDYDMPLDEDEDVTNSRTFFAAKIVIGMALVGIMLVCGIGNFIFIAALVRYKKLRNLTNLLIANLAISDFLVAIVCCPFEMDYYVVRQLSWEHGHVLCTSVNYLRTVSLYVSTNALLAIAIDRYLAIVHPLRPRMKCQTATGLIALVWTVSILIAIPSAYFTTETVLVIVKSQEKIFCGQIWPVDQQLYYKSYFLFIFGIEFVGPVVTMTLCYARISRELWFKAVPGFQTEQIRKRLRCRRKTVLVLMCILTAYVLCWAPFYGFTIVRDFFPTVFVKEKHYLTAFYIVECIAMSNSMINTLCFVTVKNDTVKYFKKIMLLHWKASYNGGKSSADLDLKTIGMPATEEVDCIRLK

target: recombinant PKR1 (Homo sapiens (Human), UniProt Q8TCW9); assay: Aequorin-based Ca2+ mobilization antagonist assay, CHO cells expressing PKR1; format: cell-based

Row | SMILES | Ki
1 | CC(C)CN(Cc1cc(Cl)c2c(c1)OCCCO2)C(=O)[C@H](C)CNCc1cccc2c1OCC2 | 3.78 nM
2 | Cc1ccccc1CN1CC[C@@H](C(=O)N(Cc2cc(F)c3c(c2)OCCCO3)CC(C)C)C1 | 46.4 nM
3 | CCCN(Cc1cc(Cl)c2c(c1)OCCCO2)C(=O)C(C)CNCc1cccc2[nH]ccc12 (racemic) | 19.7 nM
4 | CC(C)CN(Cc1cc(Cl)c2c(c1)OCCCO2)C(=O)[C@@H]1CCN(Cc2ccccc2)C1 [Example 15, (3R)-1-Benzyl-N-(9-chloro-3,4-dihydro-2H-1,5-benzodioxepin-7-ylmethyl)-N-isobutyl pyrrolidine-3-carboxamide] | 23.4 nM
5 | CC(C)CN(Cc1cc(Cl)c2c(c1)CCCCO2)C(=O)[C@@H]1CCN(Cc2cccc3c2CCN3)C1 | 1.56 nM

The remaining lines, values ahead:

Row | Ki | SMILES
6 | 10.7 nM | CC(C)CN(Cc1cc(Cl)c2c(c1)OCCCO2)C(=O)C(C)CNCc1cccc2[nH]ccc12 (racemic)
7 | 13.3 nM | CC(C)CN(Cc1cc(Cl)c2c(c1)OCCCO2)C(=O)C(C)CNCc1cccc2c1ccn2C (centres unmarked)
8 | 6.96 nM and 4.9 nM | CC(C)CN(Cc1cc(Cl)c2c(c1)OCCCO2)C(=O)C(C)CNCc1cccc2cc[nH]c12 (racemic)
9 | 25.2 nM | COc1ccccc1CNCC(C)C(=O)N(Cc1cc(Cl)c2c(c1)OCCCO2)CC(C)C (racemic)
10 | 67.4 nM | CC(C)CN(Cc1cc(Cl)c2c(c1)OCCCO2)C(=O)[C@@H](C)CNCc1cccc2cc[nH]c12
11 | 7.18 nM and 4.08 nM | CC(C)CN(Cc1cc(Cl)c2c(c1)OCCCO2)C(=O)[C@H](C)CNCc1cccc2[nH]ccc12
